Assay results taken from PubChem BioAssay AID588458 (Sanford-Burnham Center for Chemical Genomics, 2011).
The list shows a part of the results, in another mix than the full data. Calls of active or inactive are those of the source. Rule as the data show it: active = inhibition above about 50%; inactive = the rest.

Sequences of proteins named here, by UniProt entry; tags and fusion partners are left off. Residues count along the entry.
UniProt P26358, 504-1616 limits assumed: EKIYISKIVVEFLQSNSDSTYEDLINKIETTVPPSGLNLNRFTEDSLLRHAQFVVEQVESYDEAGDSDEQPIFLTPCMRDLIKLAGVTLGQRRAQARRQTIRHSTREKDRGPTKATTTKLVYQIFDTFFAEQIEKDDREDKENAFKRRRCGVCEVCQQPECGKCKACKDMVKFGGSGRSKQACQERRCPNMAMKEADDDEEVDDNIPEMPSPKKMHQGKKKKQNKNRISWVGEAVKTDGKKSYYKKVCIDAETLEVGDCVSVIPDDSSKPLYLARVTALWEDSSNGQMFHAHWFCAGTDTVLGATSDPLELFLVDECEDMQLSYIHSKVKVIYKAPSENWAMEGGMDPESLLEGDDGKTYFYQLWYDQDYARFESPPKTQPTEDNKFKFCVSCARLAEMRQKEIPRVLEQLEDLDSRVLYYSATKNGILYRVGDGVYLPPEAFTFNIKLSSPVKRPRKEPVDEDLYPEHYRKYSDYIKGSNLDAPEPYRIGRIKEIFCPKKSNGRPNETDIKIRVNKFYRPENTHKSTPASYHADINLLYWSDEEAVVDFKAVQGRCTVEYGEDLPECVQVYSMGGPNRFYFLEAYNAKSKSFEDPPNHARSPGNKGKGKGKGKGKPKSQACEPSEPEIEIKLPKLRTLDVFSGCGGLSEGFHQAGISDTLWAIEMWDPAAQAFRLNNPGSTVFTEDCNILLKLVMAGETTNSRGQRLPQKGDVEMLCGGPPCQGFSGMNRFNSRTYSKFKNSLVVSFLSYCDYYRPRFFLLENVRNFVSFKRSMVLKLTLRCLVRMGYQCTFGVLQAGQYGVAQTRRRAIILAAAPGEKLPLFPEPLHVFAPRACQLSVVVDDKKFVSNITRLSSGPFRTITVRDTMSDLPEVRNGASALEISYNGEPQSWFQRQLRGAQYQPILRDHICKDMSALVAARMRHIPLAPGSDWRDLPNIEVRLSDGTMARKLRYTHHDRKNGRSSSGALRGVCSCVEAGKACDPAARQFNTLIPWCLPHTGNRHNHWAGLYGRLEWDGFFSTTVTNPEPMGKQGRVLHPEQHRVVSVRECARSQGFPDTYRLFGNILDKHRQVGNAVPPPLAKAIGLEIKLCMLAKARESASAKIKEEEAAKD

Target: DNA (cytosine-5)-methyltransferase 1 (Homo sapiens) (UniProt P26358)
Assay: inhibition of DNA methyltransferase DNMT1 – biochemical, molecular beacon, fluorescence, HinP1I cleavage, uHTS, primary screen (AID 588458)
Details: at 10 µM, hits give high values

Structure (SMILES) | inhibition (reported as % activation of signal)
CCOC(=O)N1CCC(Nc2ccc(OC)cc2)CC1 | inactive: -1.68%
CCCCn1nnnc1C(c1ccc(OC)cc1)N1CCC(n2c(=O)[nH]c3ccccc32)CC1 (stereo unspecified) | inactive: -7.87%
O=C(OC1CN2CCC1CC2)C1c2ccccc2Oc2ccccc21 (stereo unspecified) | inactive: -2.31%
O=c1[nH]c2ccccc2n1C1CCN(C(c2cc3ccccc3o2)c2nnnn2C2CCCCC2)CC1 (stereo unspecified) | inactive: -22.3%
O=C(NCC1(N2CCCCC2)CCCCC1)c1ccc(Cl)s1 | inactive: 0.33%
N#CC1(Nc2ccccc2)CCN(Cc2ccccc2)CC1 | inactive: -1.2%
COc1ccc(Cl)cc1C(=O)NCC1(N2CCOCC2)CCCCC1 | inactive: -0.99%
O=C(NCC1(N2CCOCC2)CCCCC1)c1cc2ccccc2o1 | inactive: -8.69%
O=c1[nH]c2ccccc2n1C1CCN(C(c2ccccc2OC(F)(F)F)c2nnnn2C2CCCCC2)CC1 (stereo unspecified) | inactive: -4.85%
O=C(NCC1(N2CCCCC2)CCCCC1)c1ccc(Cl)nc1 | inactive: -1.05%
Cc1cc(C)cc(N(C(=O)c2ccccc2)C2CCN(C(=O)OC(C)(C)C)CC2)c1 | inactive: 1.21%
CSc1ccccc1C(=O)NCC1(N2CCCCC2)CCCCC1 | inactive: 1.05%
Cc1cccc(NC2(C#N)CCN(Cc3ccccc3)CC2)c1 | inactive: 5.09%
O=C(NCC1(N2CCCCC2)CCCCC1)c1ccc(=O)[nH]c1 | inactive: 1.99%
CCCCn1nnnc1C(c1cccs1)N1CCC(n2c(=O)[nH]c3ccccc32)CC1 (stereo unspecified) | inactive: 0.21%
O=C(NCC1(N2CCCCC2)CCCCC1)c1cccs1 | inactive: 3.1%
CCCCn1nnnc1C(CC)N1CCC(n2c(=O)[nH]c3ccccc32)CC1 (stereo unspecified) | inactive: 3.95%
COc1ccc(C(=O)NCC2(N3CCCCC3)CCCCC2)cc1 | inactive: -0.01%
CCC(c1nnnn1C1CCCC1)N1CCC(n2c(=O)[nH]c3ccccc32)CC1 (stereo unspecified) | inactive: 1.74%
CC(C)(C)OC(=O)N1CCC(N(C(=O)c2ccccc2)c2ccc(F)cc2)CC1 | inactive: 4.19%
COc1ccc(C(=O)NCC2(N3CCCCC3)CCCCC2)c(OC)c1OC | inactive: 2.82%
O=c1[nH]c2ccccc2n1C1CCN(C(c2cccc3ccccc23)c2nnnn2C2CCCC2)CC1 (stereo unspecified) | inactive: -23.6%
COc1cc(C(=O)NCC2(N(C)C)CCCCC2)ccc1OC(F)F | inactive: -2.69%
CCOC(=O)N1CCC(Nc2cccc(C)c2)CC1 | inactive: -1.39%
O=c1[nH]c2ccccc2n1C1CCN(C(c2ccccc2)c2nnnn2C2CCCCC2)CC1 (stereo unspecified) | inactive: -9.06%
O=C(NCC1(N2CCCCC2)CCCCC1)c1ccc(F)cc1 | inactive: 0.51%
